The values that follow come from US7160853B2, “Protocol for paracentesis” (priority 2000, dated 2007).

This experiment deals with cirrhotic patients with tense ascites. In words: Clinical comparison of terlipressin and albumin in patients treated by paracentesis. Type of experiment: in vivo, human. Particulars: for Aldosteronaemia: plasma aldosterone; for Aldosteronaemia / Reninaemia: marker of blood volume; for Reninaemia: plasma renin. From the text: Four were subsequently excluded prior to treatment.

For “Albumin: 20% human albumin, derived from donated human blood, given by infusion”, the “Survival at 3 months” value (3 months) is given as 89%. Moreover, for the setting “4–6 days later”, the Blood pressure is reported as 79 ± 3 mmHg, the Creatininaemia was determined as 71 ± 6, the Natraemia was 132 ± 1 mmol/L and the Weight amounted to 69 ± 4 kg. Under “4–6 days later”, this substance came in with an Aldosteronaemia of 1420 ± 292 pg/mL and a Reninaemia of 223 ± 74 pg/mL. In addition, for the setting “Before”, the Blood pressure came to 81 ± 4 mmHg, the Creatininaemia was 74 ± 4, the Natraemia is on record as 134 ± 1 mmol/L and the Weight was 72 ± 5 kg. For the setting “Before”, this substance came in with an Aldosteronaemia of 1149 ± 324 pg/mL and a Reninaemia of 194 ± 47 pg/mL. The “Effectiveness in treating hypovolaemia” value (as indicated by the values for reninaemia and aldosteronaemia) is “equally effective”. Also, the “Period between paracentesis treatment and discharge from hospital” value (n = 10 per group) came out at 5.3 ± 0.3 days.
